Measured values reported in BindingDB's records for 33062182.

Amino acid sequences for entries named in this document (tags omitted).
UniProt Q30W70, whole entry, looked up: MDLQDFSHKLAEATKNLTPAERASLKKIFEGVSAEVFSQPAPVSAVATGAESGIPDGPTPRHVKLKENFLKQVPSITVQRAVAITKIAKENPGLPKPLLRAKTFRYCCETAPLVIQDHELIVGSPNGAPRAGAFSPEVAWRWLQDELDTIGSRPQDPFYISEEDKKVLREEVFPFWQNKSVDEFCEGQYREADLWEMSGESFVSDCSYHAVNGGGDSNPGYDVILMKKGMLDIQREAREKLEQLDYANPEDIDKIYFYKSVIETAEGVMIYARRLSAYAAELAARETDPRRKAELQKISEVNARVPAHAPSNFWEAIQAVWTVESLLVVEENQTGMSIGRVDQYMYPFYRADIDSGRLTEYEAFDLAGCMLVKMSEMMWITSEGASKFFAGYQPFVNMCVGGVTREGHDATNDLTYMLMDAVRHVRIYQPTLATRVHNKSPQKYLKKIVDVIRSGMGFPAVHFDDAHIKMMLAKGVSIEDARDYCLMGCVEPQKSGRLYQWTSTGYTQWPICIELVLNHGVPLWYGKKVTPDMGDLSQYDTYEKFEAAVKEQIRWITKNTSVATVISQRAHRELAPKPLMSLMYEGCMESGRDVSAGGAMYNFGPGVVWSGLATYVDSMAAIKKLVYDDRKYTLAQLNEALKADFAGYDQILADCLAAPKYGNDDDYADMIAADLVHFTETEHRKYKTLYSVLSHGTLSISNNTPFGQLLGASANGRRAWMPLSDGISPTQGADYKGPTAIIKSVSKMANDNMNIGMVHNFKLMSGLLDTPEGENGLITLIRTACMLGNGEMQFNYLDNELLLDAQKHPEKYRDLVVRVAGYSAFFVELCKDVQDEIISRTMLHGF

Molecular target: Choline trimethylamine-lyase (Oleidesulfovibrio alaskensis (strain ATCC BAA-1058 / DSM 17464 / G20), UniProt Q30W70)

CN1CCCC(O)C1 (stereo unspecified)
IC50: 2 mM
